For one compound, HC50 results are on record in ChEMBL document CHEMBL4813935, “Cyclotides from Brazilian Palicourea sessilis and Their Effects on Human Lymphocytes” (J Nat Prod, 2021).

This series can be described thus: Hemolytic activity against human RBC assessed as concentration required to cause 50% hemolysis measured after 1 hr. The following applies: red blood cells (erythrocytes), read-out: CC50. Format: cell-based, Erythrocyte. A digest of the protocol:
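Donor human red blood cells were washed in PBS and diluted to 0.25% (v/v). Peptides were serially diluted from water to eight concentrations, 0.187–24 μM. Incubation was 1 h at 37 °C; PBS served as negative control and 1% Triton-X as positive control. Supernatant absorbance was read at 415 nm. CC50 (50% lysis) from log(agonist) vs response (variable slope) fit; n = 3.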

Regarding `CC[C@H](C)[C@H](NC(=O)CN)C(=O)NCC(=O)N[C@@H](C)C(=O)N[C@H](C(=O)N[C@@H](CC(C)C)C(=O)N[C@@H](CCCCN)C(=O)N[C@H](C(=O)N[C@@H](CC(C)C)C(=O)N[C@H](C(=O)N[C@H](C(=O)NCC(=O)N[C@@H](CC(C)C)C(=O)N1CCC[C@H]1C(=O)N[C@@H](C)C(=O)N[C@@H](CC(C)C)C(=O)N[C@H](C(=O)N[C@@H](CO)C(=O)N[C@@H](Cc1c[nH]c2ccccc12)C(=O)N[C@H](C(=O)N[C@@H](CCCCN)C(=O)N[C@@H](CCCNC(=N)N)C(=O)N[C@@H](CCCCN)C(=O)N[C@@H](CCCNC(=N)N)C(=O)N[C@@H](CCC(N)=O)C(=O)N[C@@H](CCC(N)=O)C(N)=O)[C@@H](C)CC)[C@@H](C)CC)[C@@H](C)O)[C@@H](C)O)C(C)C)C(C)C` [MELITTIN], the HC50 at 1 h was determined as 200 nM.
